Experimental findings from PubChem BioAssay AID720648 (The Scripps Research Institute Molecular Screening Center, 2013) are described below.

Protein sequences, listed by entry. Tags and fused reporters are not part of them. Residues count along the entry.
UniProt P78536, 215-824 limits assumed: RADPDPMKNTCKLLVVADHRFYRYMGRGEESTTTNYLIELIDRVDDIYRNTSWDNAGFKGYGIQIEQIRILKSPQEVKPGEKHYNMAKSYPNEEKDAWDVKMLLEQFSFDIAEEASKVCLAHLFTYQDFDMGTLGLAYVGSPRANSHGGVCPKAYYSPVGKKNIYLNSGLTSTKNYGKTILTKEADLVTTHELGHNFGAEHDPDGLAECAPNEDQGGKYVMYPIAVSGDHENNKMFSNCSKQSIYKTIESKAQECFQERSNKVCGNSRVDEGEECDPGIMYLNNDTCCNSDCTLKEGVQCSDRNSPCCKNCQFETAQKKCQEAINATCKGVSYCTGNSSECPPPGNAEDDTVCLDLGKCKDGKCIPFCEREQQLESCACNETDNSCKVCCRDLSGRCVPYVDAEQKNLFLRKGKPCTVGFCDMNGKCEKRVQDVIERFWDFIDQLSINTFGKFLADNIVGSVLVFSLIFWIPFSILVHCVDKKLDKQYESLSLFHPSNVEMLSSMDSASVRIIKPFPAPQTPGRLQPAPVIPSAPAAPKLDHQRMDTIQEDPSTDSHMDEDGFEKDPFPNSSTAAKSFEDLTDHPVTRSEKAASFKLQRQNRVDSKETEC

The list shows a part of the results, in another mix than the full data. Active and inactive are the calls of the source.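 Rule for the calls: active = inhibition above the mean of compounds lying between control limits plus 3 SD, set per campaign (cut at about 8.5% in these data); inactive = the rest.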

The assay has as its target Disintegrin and metalloproteinase domain-containing protein 17 (Homo sapiens) (UniProt P78536). As to the kind of experiment: inhibition of ADAM17 peptide cleavage – biochemical, QFRET, primary screen (AID 720648).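 Note: 0% = DMSO-only wells as the low control.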 The following applies: recombinant ADAM17, EDANS/DABCYL FRET peptide cleavage; at 6.95 µM; active compounds read high.
Consider `COc1cc(OC)cc(C(=O)NCC2(N3CCCCC3)CCCCC2)c1`, for which the inhibition is inactive: 2.03%. For `O=c1[nH]c2ccccc2n1C1CCN(C(c2ccnc3ccccc23)c2nnnn2C2CCCCC2)CC1` (stereo not given), the inhibition is inactive: 4.52%. For `CCC(c1nnnn1C1CCCCC1)N1CCC(n2c(=O)[nH]c3ccccc32)CC1` (stereo not given), the inhibition was inactive: 4.62%.

For `COc1cccc(C(c2nnnn2C2CCCCC2)N2CCC(n3c(=O)[nH]c4ccccc43)CC2)c1OC` (stereo not given), the inhibition was inactive: 7.32%. `CC(=O)N(c1ccccc1)C1CCNCC1`: the inhibition is inactive: -4.62%.

`Cc1ccc(NC2(C#N)CCN(Cc3ccccc3)CC2)cc1`: the inhibition was inactive: 1.21%. Consider `Fc1ccccc1NC1CCN(Cc2ccccc2)CC1`, for which the inhibition was inactive: -0.78%. Take `Cc1ccc(C(=O)NCC2(N3CCCCC3)CCCCC2)o1`: the inhibition was inactive: -5.35%. As to `COc1ccc(C(c2nnnn2C2CCCCC2)N2CCC(n3c(=O)[nH]c4ccccc43)CC2)cc1` (stereo not given), the inhibition was inactive: -1.17%. `CCN1CCC(Nc2cccc(F)c2)CC1`: the inhibition was inactive: 0.37%.

Turning to `CC(C)(C)n1nnnc1C(c1ccnc2ccccc12)N1CCC(n2c(=O)[nH]c3ccccc32)CC1` (stereo not given), the inhibition is inactive: -2.88%. In the case of `Cc1ccccc1NC1(C#N)CCN(Cc2ccccc2)CC1` it was inactive: -1.6%; in that of `CN(C)c1ccc(C(=O)NCC2(N3CCCCC3)CCCCC2)cc1`, inactive: -3.56%. Take `Cn1c(=O)[nH]cc(N(CCCl)CCCl)c1=O`: the inhibition is inactive: -2.94%. In the case of `O=C(NCC1(N2CCCCC2)CCCCC1)c1ccco1` it was inactive: -1.38%. `CN1CCC(Nc2ccc(F)c(Cl)c2)CC1`: the inhibition was inactive: -3.05%. Turning to `CCOc1ncccc1C(=O)NCC1(N2CCOCC2)CCCCC1`, the inhibition is inactive: -2.2%. As for `O=c1[nH]c2ccccc2n1C1CCN(C(c2cc3ccccc3o2)c2nnnn2C2CCCC2)CC1` (stereo not given), the inhibition was inactive: 3.58%. With `CCCOc1ccc(C(=O)NCC2(N(C)C)CCCCC2)cc1`, the inhibition is inactive: -8.23%. With `O=C(O)C1(Nc2ccccc2)CCN(Cc2ccccc2)CC1`, the inhibition is inactive: -3.41%. `NN(c1ccccc1)C1CCN(CCc2ccccc2)CC1`: the inhibition is inactive: -1.12%. For the compound `CC(C)(C)OC(=O)N1CCC(Nc2ccccc2)CC1`, the inhibition was inactive: -2.31%. The figure for `CCC(CO)(C(=O)OC1CN2CCC1CC2)c1ccccc1` (stereo not given) is inactive: 1.87%; for `COc1cc(OC)cc(C(=O)NCC2(N3CCOCC3)CCCCC2)c1` it is inactive: -1.07%; for `COc1cccc(C(c2nnnn2C2CCCC2)N2CCC(n3c(=O)[nH]c4ccccc43)CC2)c1OC` (stereo not given) it is inactive: 7.88%.

For `COc1cccc(C(=O)N(c2cc(C)cc(C)c2)C2CCN(C(=O)OC(C)(C)C)CC2)c1`, the inhibition is inactive: -0.88%. In the case of `CN1CCC(Nc2ccc(Cl)cc2)CC1` it was inactive: -3.46%. With `O=C(NCC1(N2CCOCC2)CCCCC1)c1cc(Br)ccc1Cl`, the inhibition is inactive: -0.27%. Consider `COc1cc(C(=O)NCC2(N3CCOCC3)CCCCC2)cc(OC)c1C`, for which the inhibition was inactive: 1.91%.

For the compound `CCCCn1nnnc1C(c1ccccc1)N1CCC(n2c(=O)[nH]c3ccccc32)CC1` (stereo not given), the inhibition is inactive: -0.04%. For `O=c1[nH]c2ccccc2n1C1CCN(C(c2ccnc3ccccc23)c2nnnn2C2CCCC2)CC1` (stereo not given), the inhibition is inactive: 5.2%.

As for `COc1ccc(C(=O)NCC2(N3CCOCC3)CCCCC2)cc1OC`, the inhibition was inactive: -0.91%.

In the case of `NC(=O)C1(Nc2ccccc2)CCN(Cc2ccccc2)CC1`, the inhibition is inactive: 1.16%.

On to `O=c1[nH]c2ccccc2n1C1CCN(C(c2cccs2)c2nnnn2C2CCCCC2)CC1` (stereo not given), for which the inhibition was inactive: 6.25%. Consider `N/C(=N\O)c1c(N)no[n+]1[O-]`, for which the inhibition is inactive: -1.83%.

Consider `CCOC(=O)N1CCC(Nc2ccc(C)cc2)CC1`, for which the inhibition was inactive: -1.7%. Take `COc1cccc(C(c2nnnn2C(C)(C)C)N2CCC(n3c(=O)[nH]c4ccccc43)CC2)c1OC` (stereo not given): the inhibition was inactive: 1.7%. The figure for `CCCCn1nnnc1C(c1cccc(OC)c1OC)N1CCC(n2c(=O)[nH]c3ccccc32)CC1` (stereo not given) is inactive: 3.45%; for `O=c1[nH]c2ccccc2n1C1CCN(C(c2cccs2)c2nnnn2C2CCCC2)CC1` (stereo not given) it is inactive: 3.87%; for `O=C(OC1CN2CCC1CC2)C1c2ccccc2C=Cc2ccccc21` (stereo not given) it is inactive: -3.66%.

On to `CC(C)(C)OC(=O)N1CCC(N(C(=O)c2ccccc2)c2ccc(Cl)cc2)CC1`, for which the inhibition is inactive: 2.19%. In the case of `N#Cc1ccc(C(=O)NCC2(N3CCCCC3)CCCCC2)cc1`, the inhibition was inactive: -2.6%. Consider `O=c1[nH]c2ccccc2n1C1CCN(C(c2ccccc2)c2nnnn2C2CCCC2)CC1` (stereo not given), for which the inhibition is inactive: 0.53%. For the compound `CCCN1CCC(Nc2cc(OC)cc(OC)c2)CC1`, the inhibition is inactive: -7.35%. As for `Cc1cc(N(CCCl)CCCl)ccc1C=O`, the inhibition is inactive: -4.87%.

Turning to `C/C(N)=N\P(=O)(Oc1ccccc1)Oc1ccccc1`, the inhibition was inactive: -0.71%. The figure for `c1ccc(CN2CCC(Nc3ccccc3)CC2)cc1` is inactive: 0.32%; for `CN(C)C1(CNC(=O)c2cccc(C#N)c2)CCCCC1` it is inactive: -1.3%; for `CC(C)(C)n1nnnc1C(c1cccc2ccccc12)N1CCC(n2c(=O)[nH]c3ccccc32)CC1` (stereo not given) it is active: 9.72%.

`O=C(NCC1(N2CCCCC2)CCCCC1)c1ccc(OC(F)F)cc1`: the inhibition was inactive: -1.89%.

Take `CC(C)(C)n1nnnc1C(c1ccccc1OC(F)(F)F)N1CCC(n2c(=O)[nH]c3ccccc32)CC1` (stereo not given): the inhibition was inactive: -1.2%.

For the compound `O=C(NCC1(N2CCCCC2)CCCCC1)c1cccc([N+](=O)[O-])c1`, the inhibition was inactive: -0.21%. Consider `CSc1ccc(C(=O)NCC2(N3CCOCC3)CCCCC2)cc1`, for which the inhibition is inactive: 1.1%. As for `O=c1[nH]c2ccccc2n1C1CCN(C(c2ccccc2OC(F)(F)F)c2nnnn2C2CCCC2)CC1` (stereo not given), the inhibition is inactive: -3.32%.

Regarding `N#CC1(Nc2ccccc2)CCN(CCc2ccccc2)CC1`, the inhibition was inactive: -0.75%.

`CCN1CCC(Nc2ccc(Cl)cc2)CC1`: the inhibition is inactive: -9.81%. The figure for `O=C(NCC1(N2CCCCC2)CCCCC1)c1cccc(C(F)(F)F)c1` is inactive: -0.3%; for `CN1CCN(CCOC(=O)C(O)(c2ccccc2)c2ccccc2)CC1` it is inactive: 1.75%. Consider `COc1ccc(NC2CCN(C(=O)OC(C)(C)C)CC2)cc1`, for which the inhibition is inactive: 1.08%. Take `CC(C)c1ccc(C(=O)NCC2(N3CCOCC3)CCCCC2)cc1`: the inhibition is inactive: -1.1%. As to `CCCCn1nnnc1C(c1cccc2ccccc12)N1CCC(n2c(=O)[nH]c3ccccc32)CC1` (stereo not given), the inhibition was inactive: 6.61%.

As to `COc1cc(C(=O)NCC2(N3CCCCC3)CCCCC2)ccc1OC(F)F`, the inhibition is inactive: -1.73%. Take `O=C(NCC1(N2CCOCC2)CCCCC1)c1cc(=O)[nH]c2ccccc12`: the inhibition is inactive: -2.61%.

Take `CN(C)c1cccc(C(=O)NCC2(N3CCCCC3)CCCCC2)c1`: the inhibition is inactive: -14.2%. As to `COc1ccc(CN(CCCl)CCCl)cc1Cl`, the inhibition was inactive: -7.02%. Consider `COC(=O)C1(Nc2ccccc2)CCN(Cc2ccccc2)CC1`, for which the inhibition was inactive: -0.63%. Turning to `CC(C)c1ccc(NC2CCN(C(=O)OC(C)(C)C)CC2)cc1`, the inhibition was inactive: -0.26%. As for `CCCCn1nnnc1C(c1ccnc2ccccc12)N1CCC(n2c(=O)[nH]c3ccccc32)CC1` (stereo not given), the inhibition was inactive: 2.83%. In the case of `CCC(c1nnnn1C(C)(C)C)N1CCC(n2c(=O)[nH]c3ccccc32)CC1` (stereo not given) it was inactive: -3.99%; in that of `O=C(NCC1(N2CCOCC2)CCCCC1)c1cc(F)c(F)cc1Cl`, inactive: -5.1%.

On to `COc1cc(OC)c(C(=O)NCC2(N(C)C)CCCCC2)cc1OC`, for which the inhibition was inactive: -3.82%. `CN1CCC(Nc2cccc(F)c2)CC1`: the inhibition was inactive: -2.72%. `O=C(NCC1(N2CCCCC2)CCCCC1)c1cncc(Br)c1`: the inhibition was inactive: 4.09%. As for `CCCOc1ccc(C(=O)NCC2(N(C)C)CCCCC2)cc1OC`, the inhibition was inactive: -2.53%. Consider `Cc1ccc(C(=O)NCC2(N(C)C)CCCCC2)o1`, for which the inhibition was inactive: 3.11%. In the case of `COc1ccc(C(c2nnnn2C2CCCC2)N2CCC(n3c(=O)[nH]c4ccccc43)CC2)cc1` (stereo not given), the inhibition was inactive: 2.79%. `CCCCn1nnnc1C(CC)N1CCC(n2c(=O)[nH]c3ccccc32)CC1` (stereo not given): the inhibition is inactive: 2.85%.

Turning to `O=C(NCC1(N2CCCCC2)CCCCC1)c1cccs1`, the inhibition is inactive: -3.27%.

With `CCCCn1nnnc1C(c1cccs1)N1CCC(n2c(=O)[nH]c3ccccc32)CC1` (stereo not given), the inhibition was inactive: -1.29%. As for `O=C(NCC1(N2CCCCC2)CCCCC1)c1ccc(=O)[nH]c1`, the inhibition is inactive: 1.8%. On to `COc1ccc(C(=O)NCC2(N3CCCCC3)CCCCC2)c(OC)c1OC`, for which the inhibition was inactive: -3.41%. The figure for `CC(C)(C)OC(=O)N1CCC(N(C(=O)c2ccccc2)c2ccc(F)cc2)CC1` is inactive: 0.62%; for `CCC(c1nnnn1C1CCCC1)N1CCC(n2c(=O)[nH]c3ccccc32)CC1` (stereo not given) it is inactive: -3.86%. As for `COc1ccc(C(=O)NCC2(N3CCCCC3)CCCCC2)cc1`, the inhibition is inactive: -2.1%. Take `Cc1cccc(NC2(C#N)CCN(Cc3ccccc3)CC2)c1`: the inhibition was inactive: 3.98%. For `CSc1ccccc1C(=O)NCC1(N2CCCCC2)CCCCC1`, the inhibition is inactive: -2.53%.

`O=C(NCC1(N2CCOCC2)CCCCC1)c1cc2ccccc2o1`: the inhibition is inactive: -0.54%. For the compound `Cc1cc(C)cc(N(C(=O)c2ccccc2)C2CCN(C(=O)OC(C)(C)C)CC2)c1`, the inhibition was inactive: 3.25%. Turning to `O=C(NCC1(N2CCCCC2)CCCCC1)c1ccc(Cl)nc1`, the inhibition was inactive: 4.05%. In the case of `O=c1[nH]c2ccccc2n1C1CCN(C(c2ccccc2OC(F)(F)F)c2nnnn2C2CCCCC2)CC1` (stereo not given) it was inactive: -0.05%; in that of `CCCCn1nnnc1C(c1ccc(OC)cc1)N1CCC(n2c(=O)[nH]c3ccccc32)CC1` (stereo not given), inactive: -1.83%. For `CCOC(=O)N1CCC(Nc2ccc(OC)cc2)CC1`, the inhibition is inactive: -1.69%. For the compound `COc1ccc(Cl)cc1C(=O)NCC1(N2CCOCC2)CCCCC1`, the inhibition is inactive: -0.91%. As to `O=C(NCC1(N2CCCCC2)CCCCC1)c1ccc(Cl)s1`, the inhibition was inactive: -2.11%. Consider `N#CC1(Nc2ccccc2)CCN(Cc2ccccc2)CC1`, for which the inhibition is inactive: -3.39%.

With `O=C(OC1CN2CCC1CC2)C1c2ccccc2Oc2ccccc21` (stereo not given), the inhibition was inactive: -3.27%.

Consider `O=c1[nH]c2ccccc2n1C1CCN(C(c2cc3ccccc3o2)c2nnnn2C2CCCCC2)CC1` (stereo not given), for which the inhibition was inactive: -4.53%. With `CCOc1ccc(C)cc1CN(CCCl)CCCl`, the inhibition was inactive: 2.6%.

As to `O=C1CCN(Cc2ccccc2)CC1`, the inhibition is inactive: -3%. Turning to `CC(C)(C)n1nnnc1C(c1ccccc1)N1CCC(n2c(=O)[nH]c3ccccc32)CC1` (stereo not given), the inhibition is inactive: 0.38%.

On to `COc1ccc(NC2CCN(CCc3ccccc3)CC2)c(OC)c1`, for which the inhibition was inactive: -1.78%. For `CCOC(=O)N1CCC(Nc2ccc(F)cc2)CC1`, the inhibition was inactive: 3.04%. `CCCCn1nnnc1C(c1cc2ccccc2o1)N1CCC(n2c(=O)[nH]c3ccccc32)CC1` (stereo not given): the inhibition was inactive: 3.07%.

Regarding `O=P1(N(CCCl)CCCl)SCCCS1`, the inhibition is inactive: -1.03%.

Consider `CCCCOc1ccc(C(=O)NCC2(N3CCOCC3)CCCCC2)cc1`, for which the inhibition was inactive: -2.12%. The figure for `O=C(NCC1(N2CCCCC2)CCCCC1)c1ccc(F)cc1` is inactive: -0.3%. Consider `O=c1[nH]c2ccccc2n1C1CCN(C(c2ccccc2)c2nnnn2C2CCCCC2)CC1` (stereo not given), for which the inhibition is inactive: -2.58%. For the compound `O=c1[nH]c2ccccc2n1C1CCN(C(c2cccc3ccccc23)c2nnnn2C2CCCC2)CC1` (stereo not given), the inhibition was inactive: -1.14%. Regarding `CCOC(=O)N1CCC(Nc2cccc(C)c2)CC1`, the inhibition is inactive: -8.22%. The figure for `COc1cc(C(=O)NCC2(N(C)C)CCCCC2)ccc1OC(F)F` is inactive: -5.67%.
